Experimental data as given in article PMC7723054.
This is one part of the list.

T1: LIN28A (human?, UniProt Q9H9Z2 1-209)
T1 sequence: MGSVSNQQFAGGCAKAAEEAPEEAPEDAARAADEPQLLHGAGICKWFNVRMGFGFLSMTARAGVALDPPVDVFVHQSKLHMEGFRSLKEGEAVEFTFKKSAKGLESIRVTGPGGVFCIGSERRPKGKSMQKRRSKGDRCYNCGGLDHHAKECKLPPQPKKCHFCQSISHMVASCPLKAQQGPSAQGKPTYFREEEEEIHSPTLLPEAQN

T2: CIRBP (Homo sapiens, UniProt Q14011 1-172)
T2 sequence: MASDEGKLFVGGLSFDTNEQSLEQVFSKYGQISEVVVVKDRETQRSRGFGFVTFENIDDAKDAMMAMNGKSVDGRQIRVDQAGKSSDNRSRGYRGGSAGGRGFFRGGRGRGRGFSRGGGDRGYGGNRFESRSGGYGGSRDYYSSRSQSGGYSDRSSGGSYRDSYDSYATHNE

T3: DHX36 (Homo sapiens, UniProt Q9H2U1 1-1008)
T3 sequence: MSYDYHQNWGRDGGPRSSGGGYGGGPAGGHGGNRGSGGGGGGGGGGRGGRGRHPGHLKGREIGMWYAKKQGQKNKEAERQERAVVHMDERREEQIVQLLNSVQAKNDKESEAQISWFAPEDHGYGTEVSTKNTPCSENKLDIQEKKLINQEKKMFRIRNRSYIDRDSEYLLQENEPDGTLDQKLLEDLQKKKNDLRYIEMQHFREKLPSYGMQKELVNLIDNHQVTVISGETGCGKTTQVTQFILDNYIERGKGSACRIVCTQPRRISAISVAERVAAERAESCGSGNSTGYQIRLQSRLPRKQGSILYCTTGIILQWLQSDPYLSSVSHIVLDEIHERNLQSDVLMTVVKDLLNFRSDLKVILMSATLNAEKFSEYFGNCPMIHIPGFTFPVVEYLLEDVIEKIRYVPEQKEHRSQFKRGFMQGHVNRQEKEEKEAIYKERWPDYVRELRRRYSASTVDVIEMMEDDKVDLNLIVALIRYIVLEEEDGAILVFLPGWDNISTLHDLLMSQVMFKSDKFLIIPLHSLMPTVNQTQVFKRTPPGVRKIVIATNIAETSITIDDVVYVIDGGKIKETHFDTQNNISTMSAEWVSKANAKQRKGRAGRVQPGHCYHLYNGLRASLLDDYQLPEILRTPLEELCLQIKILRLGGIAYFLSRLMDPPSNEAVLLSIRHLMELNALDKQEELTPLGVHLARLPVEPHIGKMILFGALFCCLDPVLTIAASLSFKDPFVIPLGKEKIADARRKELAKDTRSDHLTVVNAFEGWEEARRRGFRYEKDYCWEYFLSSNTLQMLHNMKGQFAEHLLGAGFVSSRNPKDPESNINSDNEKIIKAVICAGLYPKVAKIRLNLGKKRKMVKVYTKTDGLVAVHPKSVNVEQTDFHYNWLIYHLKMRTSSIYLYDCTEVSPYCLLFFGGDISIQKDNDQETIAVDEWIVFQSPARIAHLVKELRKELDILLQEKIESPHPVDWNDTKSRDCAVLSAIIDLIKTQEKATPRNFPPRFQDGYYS

B1: hsa-mir-6871 (structured_RNA)
RNA: GGGAACGGCUUCUCUCAUCGCACAUCUAGGUGUACGAAGUUUCAGCGGUUGCUGGAGGUCAGCGCUGAAGCUUCGUGCAC
B2: hsa-mir-5708 (structured_RNA)
RNA: GGGACGGGAAGUAUAAGCUUGUCUCCCGGGUGUACGAAGUUUCAGCGACCAAAAGUCAACAUUAAACAACAAAUCUUGGCCGCUGAAGCUUCGUGCAC
B3: hsa-mir-575 (structured_RNA)
RNA: GGGACAAAGUCACGUGCCCGUUUUCGAUGGUGUACGAAGUUUCAGCGCUUAUGUCAUGACCUUGGGCUACUCAGGCUGUCUGCACAAUGAGCGCUGAAGCUUCGUGCAC
B4: hsa-mir-1468 (structured_RNA)
RNA: GGGAAGUAUCCACGACAGAACUAUGCAGGGUGUACGAAGUUUCAGCCGCUGAUGUGCAUUCAACUCAUUCUCAGCAGCUGAAGCUUCGUGCAC
B5: hsa-mir-4459 (structured_RNA)
RNA: GGGAGGCCCAUGUACCAACUUAGUAACGGGUGUACGAAGUUUCAGCGAGGUUGCAGUGAGCCAAGAUCGUGGCUGAAGCUUCGUGCAC
B6: hsa-mir-1911 (structured_RNA)
RNA: GGGAACUGGUAACACAGCCGUUUACAUAGGUGUACGAAGUUUCAGCGUUGGGCAUCCACAGUCUCCCACCGCUGAAGCUUCGUGCAC
B7: hsa-mir-662 (structured_RNA)
RNA: GGGAGGCCCAACUUAGAAUAAUGCGACAGGUGUACGAAGUUUCAGCGGGGUGGCUGCGGGCCUUCUGAAGGUCUCCCGCUGAAGCUUCGUGCAC
B8: hsa-mir-615 (structured_RNA)
RNA: GGGCCGUGGUUAUCCCCAACAGUUUGUGGGUGUACGAAGUUUCAGCCGGAUCUCGAGGGUGCUUAUUGUUCGGUCCGGCUGAAGCUUCGUGCAC
B9: hsa-mir-4786 (structured_RNA)
RNA: GGGAAUCAGUGCCAGUGCCCGGUAUAAAGGUGUACGAAGUUUCAGCUGCACCACUCUCCCUGUGAUGAGGUGAAGCUGAAGCUUCGUGCAC
B10: hsa-mir-4307 (structured_RNA)
RNA: GGGAAAAGCAUGGACUCCCCGAGACACAGGUGUACGAAGUUUCAGCAGUUUGUGAUAAUGUUUGUCUAUAUAGUUAUGAAUGGCUGAAGCUUCGUGCAC
B11: hsa-mir-4791 (structured_RNA)
RNA: GGGAAAUUCUGCGGACCUCACUAAUGCGGGUGUACGAAGUUUCAGCAAAUAAGCUCCAUAUCAAUGAGAAUUUCAAUGGGAUUAUGUGGCUGAAGCUUCGUGCAC
B12: hsa-mir-617 (structured_RNA)
RNA: GGGAAAGGCGUUAUUACGUAAGGUCCCAGGUGUACGAAGUUUCAGCUGGCCAUUUCCUACCAGCUGAAGCUUCGUGCAC
B13: hsa-mir-4303 (structured_RNA)
RNA: GGGAAAGAACGCCGUCGUUUCAUACCUGGGUGUACGAAGUUUCAGCCAGCUUGCUCUGCUUUGCUGAAGCUUCGUGCAC
B14: hsa-mir-4714 (structured_RNA)
RNA: GGGACUACUUAGGACGCAUUGUGCGGGUGGUGUACGAAGUUUCAGCUUGAUGUCAGAAUGAGGUGUACCAAGCUGAAGCUUCGUGCAC
B15: NEAT1_ParasoR_ID51 (structured_RNA)
RNA: GGGAACCCAAGUAGUCGAACAAGAGCCAGGUGUACGAAGUUUCAGCGAUGGCUUUGAGGUUAUUUGCAGUUUCCUAGCCAUCGCUGAAGCUUCGUGCAC
B16: hsa-mir-2052 (structured_RNA)
RNA: GGGAACGAGCACUUAGUGGCUUUCCAAGGGUGUACGAAGUUUCAGCAUGUCCCUUUAGUUCAAAGUGCUGAAGCUUCGUGCAC
B17: hsa-mir-6878 (structured_RNA)
RNA: GGGAAAAUUCCCAAGUACCUCUGGUCACGGUGUACGAAGUUUCAGCGAAGAUUCUGAAAAUCACUAACUGCUGAAGCUUCGUGCAC
B18: hsa-mir-4467 (structured_RNA)
RNA: GGGAACCGGCAGGUCUCAGCUAUAACUAGGUGUACGAAGUUUCAGCGCUUCUCUUUCUCACCAGCAGCGCUGAAGCUUCGUGCAC
B19: hsa-mir-28 (structured_RNA)
RNA: GGGAGAAGGCAAUCCCGAGCGAUACUCUGGUGUACGAAGUUUCAGCAUUGAGUUACCUUUCUGACUUUCCCACUGCUGAAGCUUCGUGCAC
B20: hsa-mir-770 (structured_RNA)
RNA: GGGAGAGUGCCAUUUACAAUCCUCGUGCGGUGUACGAAGUUUCAGCGCCACAUGAGCUGGGCCUCGUGGGCGCUGAAGCUUCGUGCAC
B21: hsa-mir-668 (structured_RNA)
RNA: GGGACAAUAAACCGGAUUCGAAAAGCGAGGUGUACGAAGUUUCAGCAGCAUGCACUUAAUGUGGGUGUAUGUGCUGAAGCUUCGUGCAC
B22: hsa-mir-3133 (structured_RNA)
RNA: GGGACAGCGUAGAGUGGUCCAAUUCAUGGGUGUACGAAGUUUCAGCCAAUAGUAAAAAGACAACCUGUUGGCUGAAGCUUCGUGCAC
B23: hsa-mir-4525 (structured_RNA)
RNA: GGGAACGUAUAUCCCGGAAAGUGAAACCGGUGUACGAAGUUUCAGCGGUUGGGGUGGGCUGCCUGUGGACCAAUCGCUGAAGCUUCGUGCAC

Each binder was assayed against U1A (Homo sapiens, UniProt P09012) (assay: FOREST: bead pull-down of RNA structure library v1, barcode microarray; U1A/LIN28A: 20 mM HEPES pH 7.5, 80 mM KCl, 20 mM NaCl, 10% glycerol, 2 mM DTT, 0.1 ug/uL BSA, 4 C; BG4/CIRBP/DHX36: 10 mM Tris-HCl pH 7.5, 100 mM KCl (or LiCl),; high values mean tight binding).
B1 gave a binding signal of 0.411 z-score.
B2 gave a binding signal of 0.408 z-score.
B3 gave a binding signal of 0.402 z-score.
In the case of B4, the binding signal is reported as 0.414 z-score.
Work on B5 yielded a binding signal of 0.397 z-score.
In the case of B6, the binding signal is reported as 0.402 z-score.
In the case of B7, the binding signal is reported as 0.413 z-score.
B8 showed a binding signal of 0.416 z-score.
In the case of B9, the binding signal is reported as 0.404 z-score.
B10 gave a binding signal of 0.4 z-score.
B11 gave a binding signal of 0.418 z-score.
In the case of B12, the binding signal is reported as 0.401 z-score.
In the case of B13, the binding signal is reported as 0.392 z-score.
B14 gave a binding signal of 0.397 z-score.
Binder B15 has a binding signal of 0.143 ± 0.384 z-score.
B16 showed a binding signal of 0.406 z-score.
In the case of B17, the binding signal is reported as 0.413 z-score.
In the case of B18, the binding signal is reported as 0.419 z-score.
Work on B19 yielded a binding signal of 0.403 z-score.
In the case of B20, the binding signal is reported as 0.398 z-score.
Binder B21 has a binding signal of 0.394 z-score.
With B22 the binding signal was 0.396 z-score.
B23 was tested, and the binding signal was 0.4 z-score.

The binders below were run against T1, LIN28A in the same assay as above.
For B1, the binding signal was 0.869 z-score.
Binder B2 has a binding signal of -0.158 z-score.
B3 gave a binding signal of -1.52 z-score.
With B4 the binding signal was -0.111 z-score.
B5 gave a binding signal of 1.76 z-score.
B6 showed a binding signal of -1.3 z-score.
Binder B7 has a binding signal of 0.586 z-score.
In the case of B8, the binding signal is reported as 1.42 z-score.
B9 was tested, and the binding signal was -1.27 z-score.
In the case of B10, the binding signal is reported as 0.198 z-score.
B11 showed a binding signal of 0.133 z-score.
For B12, the binding signal was -0.94 z-score.
B13 showed a binding signal of -0.692 z-score.
Work on B14 yielded a binding signal of 0.613 z-score.
With B15 the binding signal was 0.533 ± 0.758 z-score.
B16 gave a binding signal of -0.504 z-score.
For B17, the binding signal was -0.806 z-score.
B18 was tested, and the binding signal was -0.71 z-score.
With B19 the binding signal was 0.299 z-score.
B20 showed a binding signal of 0.0505 z-score.
Work on B21 yielded a binding signal of -0.749 z-score.
B22 gave a binding signal of 0.677 z-score.
B23 was tested, and the binding signal was 0.73 z-score.

What follows are binders tested against T2, CIRBP in the same assay as above.
For B1, the binding signal was 0.673 z-score.
B2 showed a binding signal of -0.278 z-score.
For B3, the binding signal was -0.84 z-score.
B4 was tested, and the binding signal was 0.709 z-score.
For B5, the binding signal was 0.218 z-score.
B6 was tested, and the binding signal was -0.688 z-score.
For B7, the binding signal was 0.419 z-score.
Work on B8 yielded a binding signal of 0.786 z-score.
For B9, the binding signal was -0.567 z-score.
Work on B10 yielded a binding signal of -1.11 z-score.
B11 showed a binding signal of 0.271 z-score.
Work on B12 yielded a binding signal of -1.6 z-score.
Work on B13 yielded a binding signal of -0.17 z-score.
Work on B14 yielded a binding signal of -1.34 z-score.
In the case of B15, the binding signal is reported as 0.969 ± 0.377 z-score.
With B16 the binding signal was -0.734 z-score.
B17 was tested, and the binding signal was 0.524 z-score.
B18 showed a binding signal of -0.898 z-score.
For B19, the binding signal was 0.246 z-score.
Binder B20 has a binding signal of -0.275 z-score.
In the case of B21, the binding signal is reported as 0.344 z-score.
Work on B22 yielded a binding signal of -0.962 z-score.
B23 was tested, and the binding signal was 0.375 z-score.

These binders were tested against T3, DHX36 in the same assay as above.
B1 showed a binding signal of 0.308 z-score.
B2 showed a binding signal of 0.22 z-score.
Work on B3 yielded a binding signal of -0.855 z-score.
B4 was tested, and the binding signal was -0.28 z-score.
For B5, the binding signal was 0.229 z-score.
B6 gave a binding signal of -0.975 z-score.
B7 showed a binding signal of 0.604 z-score.
B8 was tested, and the binding signal was -0.0271 z-score.
For B9, the binding signal was 0.41 z-score.
Binder B10 has a binding signal of -0.706 z-score.
B11 gave a binding signal of -0.508 z-score.
For B12, the binding signal was -0.051 z-score.
B13 gave a binding signal of -0.309 z-score.
B14 gave a binding signal of -0.14 z-score.
B15 gave a binding signal of -0.165 ± 0.162 z-score.
Binder B16 has a binding signal of -0.961 z-score.
With B17 the binding signal was -0.398 z-score.
In the case of B18, the binding signal is reported as -1.46 z-score.
B19 was tested, and the binding signal was -0.533 z-score.
B20 showed a binding signal of 0.228 z-score.
For B21, the binding signal was -0.31 z-score.
Binder B22 has a binding signal of -0.685 z-score.
B23 showed a binding signal of 1.33 z-score.
